In US20140072613A1 (published 2014):

T1: PAR-1Bα(h) (human, UniProt Q7KZI7-4 1-725, limits assumed)
T1 sequence (looked up): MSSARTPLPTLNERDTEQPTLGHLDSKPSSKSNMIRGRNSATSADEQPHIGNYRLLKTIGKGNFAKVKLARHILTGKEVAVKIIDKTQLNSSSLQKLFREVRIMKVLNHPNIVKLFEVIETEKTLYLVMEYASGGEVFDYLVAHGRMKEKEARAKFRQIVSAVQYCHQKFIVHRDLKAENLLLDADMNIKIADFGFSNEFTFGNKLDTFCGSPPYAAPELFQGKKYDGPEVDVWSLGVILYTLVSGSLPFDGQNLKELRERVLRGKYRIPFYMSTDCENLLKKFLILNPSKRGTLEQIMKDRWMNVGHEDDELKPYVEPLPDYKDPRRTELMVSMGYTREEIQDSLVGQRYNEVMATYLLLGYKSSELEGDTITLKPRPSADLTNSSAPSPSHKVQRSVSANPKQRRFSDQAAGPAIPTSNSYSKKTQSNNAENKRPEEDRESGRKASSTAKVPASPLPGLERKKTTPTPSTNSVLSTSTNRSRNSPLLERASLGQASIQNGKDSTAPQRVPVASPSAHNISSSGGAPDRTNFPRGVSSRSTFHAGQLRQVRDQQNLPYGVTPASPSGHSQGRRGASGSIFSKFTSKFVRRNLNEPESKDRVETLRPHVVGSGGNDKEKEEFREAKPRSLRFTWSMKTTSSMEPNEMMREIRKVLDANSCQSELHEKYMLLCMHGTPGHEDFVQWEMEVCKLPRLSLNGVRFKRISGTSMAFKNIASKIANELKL


Legend:
Test in all cases: cell-based or functional assay
c-RAF(h) = c-RAF(h) (human, UniProt P04049 306-648, limits assumed)
JAK3(h) = JAK3(h) (human, UniProt P52333 781-1124, limits assumed)
PAR-1Bα(h) = target: T1, PAR-1Bα(h)
TLK2(h) = TLK2(h) (human, UniProt Q86UE8 1-772, limits assumed)
PKA(h) = PKA(h) (human, UniProt P17612 1-351)
GRK5(h) = GRK5(h) (human, UniProt P34947 1-590)
PKGη(h) = PKGη(h) (human)
FAK(h) = FAK(h) (human, UniProt Q05397 1-1052, limits assumed)
ACK1(h) = ACK1(h) (human, UniProt Q07912 110-476, limits assumed)
cKit(V560G)(h) = cKit(V560G)(h) (human, UniProt P10721 544-976)
Plk1(h) = Plk1(h) (human, UniProt P53350 1-603)
Tie2(R849W)(h) = Tie2(R849W)(h) (human, UniProt Q02763 771-1124, limits assumed)
FGFR2(N549H)(h) = FGFR2(N549H)(h) (human, UniProt P21802 456-770, limits assumed)
CK2α2(h) = CK2α2(h) (human, UniProt P19784 1-350)
HIPK3(h) = HIPK3(h) (human, UniProt Q9H422 163-562, limits assumed)
JAK2(h) = JAK2(h) (human, UniProt O60674 808-1132, limits assumed)
Lck(h) = Lck(h) (human, UniProt P06239 1-509)
PAK5(h) = PAK5(h) (human, UniProt Q9P286 1-719, limits assumed)
Abl(M351T)(h) = Abl(M351T)(h) (human, UniProt P00519 27-1130, limits assumed)
CK1γ1(h) = CK1γ1(h) (human, UniProt Q9HCP0 1-422)

Row | Binder | % activity, 100 µM (c-RAF(h)) [%] | % activity, 100 µM (JAK3(h)) [%] | % activity, 100 µM (PAR-1Bα(h)) [%] | % activity, 100 µM (TLK2(h)) [%] | % activity, 100 µM (PKA(h)) [%] | % activity, 100 µM (GRK5(h)) [%] | % activity, 100 µM (PKGη(h)) [%] | % activity, 100 µM (FAK(h)) [%] | % activity, 100 µM (ACK1(h)) [%] | % activity, 100 µM (cKit(V560G)(h)) [%] | % activity, 100 µM (Plk1(h)) [%] | % activity, 100 µM (Tie2(R849W)(h)) [%] | % activity, 100 µM (FGFR2(N549H)(h)) [%] | % activity, 100 µM (CK2α2(h)) [%] | % activity, 100 µM (HIPK3(h)) [%] | % activity, 100 µM (JAK2(h)) [%] | % activity, 100 µM (Lck(h)) [%] | % activity, 100 µM (PAK5(h)) [%] | % activity, 100 µM (Abl(M351T)(h)) [%] | % activity, 100 µM (CK1γ1(h)) [%]
1 | FAKLAARLYRKALARQLGVAA [MMI-0300] | 107 | 121 | 113 | 114 | 119 | 136 | 103 | 111 | 104 | 102 | 115 | 117 | 116 | 105 | – | – | – | – | – | –
2 | KAFAKLAARLYRKALARQLGVAA [MMI-0400] | – | – | 109 | – | – | – | – | – | – | – | – | – | 112 | – | 105 | 119 | 228 | 117 | 121 | 116
